{
  "source": "paper PMC6832551",
  "about": "“An Antiviral Peptide from Alopecosa nagpag Spider Targets NS2B–NS3 Protease of Flaviviruses” (Toxins, 2019)",
  "origin": "cited, not measured here",
  "test_system": "recombinant ZIKV NS2B–NS3 protease",
  "conditions": "interacting with H51 and S135 in the ZIKV NS2B–NS3 protease; cited from earlier work",
  "text": "Despite their differences in pathogeneses, DENV and ZIKV are representative, emerging mosquito-borne flaviviruses with similar replication cycles which infect millions of people annually. The non-structural proteins of flaviviruses are important for virus replication and assembly. It has been established that NS2B–NS3 forms the viral protease and NS3 alone serves as the dsRNA helicase. Recently, the NS2B–NS3 protease became an attractive antiviral target, and many of its inhibitors have been reported as potential antivirals. Protease inhibitors are ubiquito ...",
  "note": "Counter-ions that a name gives are not always drawn.",
  "data": [
    {"smiles": "CC(C)C[C@H]1C(=O)N2CCC[C@H]2[C@]2(O)O[C@](NC(=O)[C@@H]3C=C4c5cccc6[nH]c(Br)c(c56)C[C@H]4N(C)C3)(C(C)C)C(=O)N12", "note": "[bromocriptine, Bromocriptine mesylate]", "values": [
      {"measurement": "ZIKV protease activity (in words)", "result": "confirmed to inhibit ZIKV protease activity"}
    ]}
  ]
}
